Common to all, as to format: cell-based
Series [1] has as its target T1, human AGTR1 (Homo sapiens, UniProt P30556).
T1 construct: host or cells: HEK293 (HEK-AGTR1 FAP cells)
Kind of series: AGTR1 signaling, IP-One Gq kit (IP1 accumulation), HEK-AGTR1 FAP cells. Conditions: for IP1 accumulation: HEK-AGTR1 FAP cells, 90 minutes. The procedure: Activated AGTR1 couples to the Gαq subunit of heterotrimeric G proteins, which activates the phospholipase C (PLC) and subsequently inositol 1,4,5-trisphosphate (IP3) signaling cascade. AGTR1 signaling was measured using an IP-One Gq kit (cisbio #62IPAPEB). The kit detects the accumulation of inositol monophosphate (IP1), a stable downstream metabolite of IP3 induced by activation of a phospholipase C (PLC) cascade.
An additional control compound, AngII, which consists of the peptide motif […], was also tested. […] AGTR1 activation was measured using the IP-One Gq kit.

In series [2] the test system is human MALAT1 RNA. Kind of series: MALAT1 RNA reduction in HEK-AGTR1 FAP cells, free uptake, 24 hours. Here is the method: (§1) HEK293 cells expressing FAP tagged human AGTR1 (HEK-AGTR1 FAP cells from Spectragenetics) were treated with Compound Nos. 556089, 1229761, and 1229762, described herein above, by free uptake at the concentrations detailed in Table 3 for 24 hours. At the end of the treatment period, total RNA was isolated from the cells and MALAT1 RNA levels were measured by quantitative real-time PC&. Human MALAT1 primer probe set RTS2737 (forward sequence AAGAGGCGGCGGAAGGT (SEQ ID NO: 2); reverse sequence […] (SEQ ID NO: 3); probe sequence […] (SEQ ID NO: 4)) was used to measure RNA levels. MALAT1 RNA levels were normalized according to total RNA content, as measured by RIBOGREEN®. Reduction of MALAT1 RNA is presented Table 3 below as percent MALAT1 RNA amount relative to untreated control (UTC) cells. The half maximal inhibitory concentration (IC50) of each modified oligonucleotide was calculated using a non-linear fit [inhibitor] vs. response—variable slope (four parameters) formula in GraphPad Prism 7.01.

The subject of series [3] is human MALAT1 RNA. Kind of series: MALAT1 RNA reduction in HEK-AGTR1 FAP cells, free uptake, 48 hours. Particulars: compared to parent unconjugated Compound No. 556089, 48 hours. Here is the method: as §1, with “Table 4” for “Table 3”, “for 48” for “for 24”, “real-time PCR.” for “real-time PC&.”, “vs. response-variable” for “vs. response—variable”, “slope (three” for “slope (four”

Setting [4] is: in comparison to the unconjugated parent compound 556089.

With “Compound No. 1229761: Angiotensin II peptide [N6-(2-azidoacetyl)-K]DRVYIHPF conjugated via linker to 5′-end of MALAT1 modified oligonucleotide TCAGCATTCTAATAGCAGC”, the IP1 accumulation in series [1] (0.0256 nM) is 647 nM; in series [1] (0.128 nM), 688 nM; in series [1] (0.64 nM) it was 775 nM; in series [1] (3.2 nM), 1248 nM; in series [1] (16 nM), 3101 nM; in series [1] (80 nM) it was 8151 nM. The figures for the IP1 accumulation in series [1] (400 nM) and in series [1] (2000 nM) were 11368 nM and 13100 nM, respectively. In addition, in series [1] (setting [4]), the “AGTR1 activation in words” value was “show activation of the receptor”. Moreover, the “MALAT (% control)” value in series [2] (37 nM, 24 hours, relative to untreated control cells) was 125 % control.

As to “Compound No. 1229762: Extended Angiotensin II peptide [N6-(2-azidoacetyl)-K]PPPAGSSPGDRVYIHPF conjugated via linker to 5′-end of MALAT1 modified oligonucleotide TCAGCATTCTAATAGCAGC”, the IP1 accumulation in series [1] (0.0256 nM) was determined as 721 nM; in series [1] (0.128 nM) it was 967 nM; in series [1] (0.64 nM), 1292 nM; in series [1] (3.2 nM), 2514 nM; in series [1] (16 nM), 5558 nM; in series [1] (80 nM), 13794 nM. Besides, the IP1 accumulation in series [1] (400 nM) stood at 16811 nM; in series [1] (2000 nM), 17550 nM. The entries for the “AGTR1 activation in words” value in series [1] (compared to 1229761) and in series [1] (setting [4]) were “enhanced activation” and “show activation of the receptor”, respectively. Also, the “reduction of target RNA in words” value in series [2] (compared to parent unconjugated Compound No. 556089, 24 hours) is recorded as “significantly greater reduction of target RNA”; in series [3], “significantly greater reduction of target RNA”.

For the origin of these results see patent US20220243210A1, “ANGIOTENSIN II TYPE 1 RECEPTOR TARGETED OLIGONUCLEOTIDES AND USES THEREOF” (Ionis Pharmaceuticals, Inc., priority 2019, published 2022).
